# Conditions: dog, in vivo
smiles,measurement,value
Cc1c(C)c2c(c(C)c1O)CC[C@@](C)(CCC[C@H](C)CCC[C@H](C)CCCC(C)C)O2 [α-tocopherol],"individual plasma α-tocopherol levels, range",9 to 39.2 mg/L

# Reference: patent publication US20030198661A1, “Antioxidant compositions and methods for companion animals” (MARS INCORPORATED, priority 2000, published 2003)
